Type in all cases: cell-based, mouse
In one assay the test system is R cell. In words: Maintenance / growth potential of R cells in culture with cytokines or RCGF. The protocol:
(§1) Further, anti-Thy1.2 antibodies (manufactured by Pharmingen) and complement (rabbit serum, manufactured by Pel-Freeze) were respectively added to the resulting culture at 1 μg/ml and at a final concentration of 10% by volume per 1×10^7 cells/100 μl. After about 30 minutes of reaction, […] therefrom and the cultivation was continued while the RCGF was added at various concentrations. Then cell lines according to the invention were obtained.
Thereafter, respective cell lines were cultured in accordance with the dilution method over the course of three weeks and cloned. R cells were cultured in an RPMI culture medium containing 10% by volume of serum which contained 25% by volume of RCGF (or a culture medium for R cells containing 5 ng/ml of IL-3) at 37° C. in 5% CO2 atmosphere and maintained. The R cells died when the RCGF and T cells were removed from the culture environment.

The next assay concerns RCCM cells. Briefly: Proliferation of RCCM cells, 3H-thymidine uptake. To be noted: various concentrations; 48 hours culture, then 12 hours 3H-thymidine. On the procedure: (§2) R cells, N62.5 cells, or RCCM cells obtained in Example 1 were placed in each well of a 96-well microplate at a seeding density of 1.5×10^4 cells/well. A culture medium in which the content of RCGF was changed was used and the sensitivities of the cells to RCGF were confirmed.
(§3) The concentrations of RCGF were set to 10 v/v %, 0.1 v/v %, and 0 v/v %. The cells were cultured in an RPMI 1640 culture medium containing 10% by volume of serum at 37° C. in 5% CO2 atmosphere for 48 hours. Thereafter, ^3H-thymidine was added to the culture medium so as to give a final concentration of 0.5 μCi/ml, and the resultant was further cultured for 12 hours and the uptake amount of ^3H during the time was measured. After the reaction, the uptake amount of ^3H-thymidine was measured using MicroBeta TRIL UX (manufactured by WALLAC). In FIGS. 1 (A) to (C), black rhombuses indicate RCCM cells, black squares indicate R cells, and black triangles indicate N62.5 cells. […]
(§4) Culture media containing various recombinant cytokines (IL-3 [manufactured by PeproTech]) and IL-4 [manufactured by PeproTech] were added to each well, and cultured at 37° C. in 5% CO2 atmosphere for 48 hours. […] Thereafter, ^3H-thymidine was added to the culture medium so as to give a final concentration of 0.5 μCi/ml, and the resultant was further cultured for 12 hours and the uptake amount of ^3H during the time was measured. […]

In the next assay the test system is N62.5 cells. Briefly: Proliferation of N62.5 cells, 3H-thymidine uptake. The settings on record: various concentrations; 48 hours culture, then 12 hours 3H-thymidine. On the procedure:
as §2, §3, §4

The subject of the next assay is N62.5 cell. In words: Maintenance of N62.5 cells in culture with cytokines or RCGF. To be noted: cytokine in culture medium. The protocol:
as §1

These results are taken from patent publication US8148058B2, “Method for screening allergic disease-related molecule and cell lines to be used in the method” (Tokyo University of Science Educational Foundation …, priority 2006, dated 2012).

For the molecule IL-2: cytokine, the “sensitivity / growth potential of R cell against cytokine” value in the assay on R cell is listed as “does not show sensitivity”.

B1: IL-3: recombinant cytokine, manufactured by PeproTech (protein, UniProt P08700 20-152, looked up)
Interleukin-3: APMTQTTPLKTSWVNCSNMIDEIITHLKQPPLPLLDFNNLNGEDQDILMENNLRRPNLEAFNRAVKSLQNASAIESILKNLLPCLPLATAAPTRHPIHIKDGDWNEFRRKLTFYLKTLENAQAQQTTLSLAIF
Turning to B1, in the assay with RCCM cells, the “proliferative response of RCCM cells to RCGF / cytokines (uptake amount of 3H-thymidine)” value is on record as “no difference in growth potential”. Moreover, the “proliferative response of N62.5 cells to RCGF / cytokines (uptake amount of 3H-thymidine)” value in the assay on N62.5 cells is recorded as “showed proliferative activity”. In the assay with R cell, the “sensitivity / growth potential of R cell against cytokine” value is listed as “high growth potential”. Moreover, the “concentration at which an R cell can be maintained” value with R cell (cytokine in culture medium) is recorded as “about 5 ng/ml”. For the same molecule, in the assay with N62.5 cell, the “concentration at which an N62.5 cell can be maintained” value is reported as “about 20 ng/ml”.
